Reference: PubChem BioAssay AID504937 (National Center for Advancing Translational Sciences (NCATS), 2011)
Only a part is listed here, and it is no random draw. Active and inactive are the calls of the source. Calls follow the shape of the dose curve; as a rule, active = well fitted inhibition curve with a large enough effect; inconclusive = small, poorly fitted or top-dose-only effect; inactive = no such curve, though single readings can be large or run the other way.

Sequences of proteins named here, by UniProt entry; tags and fusion partners are left off. Residues count along the entry.
UniProt P17405, 47-631 limits assumed: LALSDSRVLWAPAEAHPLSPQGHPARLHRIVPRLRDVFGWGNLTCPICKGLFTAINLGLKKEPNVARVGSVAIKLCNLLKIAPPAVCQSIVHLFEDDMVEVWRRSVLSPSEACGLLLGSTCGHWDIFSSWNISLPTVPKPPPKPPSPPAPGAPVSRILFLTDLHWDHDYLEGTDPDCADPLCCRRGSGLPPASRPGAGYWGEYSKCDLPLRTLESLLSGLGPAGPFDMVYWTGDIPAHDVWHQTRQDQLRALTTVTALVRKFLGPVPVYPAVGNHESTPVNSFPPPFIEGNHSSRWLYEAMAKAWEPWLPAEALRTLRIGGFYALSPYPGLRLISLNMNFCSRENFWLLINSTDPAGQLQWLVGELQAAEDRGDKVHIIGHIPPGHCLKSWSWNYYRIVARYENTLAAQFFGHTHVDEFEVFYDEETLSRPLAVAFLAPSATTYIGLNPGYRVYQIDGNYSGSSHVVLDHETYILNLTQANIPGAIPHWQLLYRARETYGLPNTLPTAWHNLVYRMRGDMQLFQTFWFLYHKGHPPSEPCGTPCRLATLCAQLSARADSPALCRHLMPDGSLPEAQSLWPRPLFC

The molecules below were run against Sphingomyelin phosphodiesterase (Homo sapiens) (UniProt P17405) (assay: Inhibitors of Secretory Acid Sphingomyelinase (S-ASM): qHTS). Conditions: placental ASM, HMU-PC fluorogenic substrate (series up to 57.5 µM), 60 min; at 57.5 µM (top of the series).
For CCC(=O)N(c1ccccc1)C1(COC)CCN(CCc2cccs2)CC1, the activity change, negative = inhibition was inactive: -1.24%. With CCC(=O)N(c1ccccc1)C1(COC)CCN(CCn2nnn(CC)c2=O)CC1 the activity change, negative = inhibition was inactive: 4.11%.
